Assay results from paper PMC3199943, “Screening the MayBridge Rule of 3 Fragment Library for Compounds That Interact with the Trypanosoma brucei myo-Inositol-3-Phosphate Synthase and/or Show Trypanocidal Activity” (Molecular Biology International, 2011).
Read-outs that look alike come from different tables or passages of the source.

System: cultured bloodstream T. brucei (strain 427)
Assay: microbe, parasite or virus in culture
Conditions: Trypanosoma brucei
[1] = read-out: T. brucei Alamar Blue
[2] = read-out: T. brucei Alamar Blue (% survival)
[3] = read-out: T. brucei Alamar Blue, Supplementary Table 1, compound 0.5 mM, percentage of controls in the absence of compound, mean ± SD (n=3) or SE (n=2)

Structure (SMILES) | viability at 500 µM [1] [%] | other results
O=C(O)c1sccc1Cl [compound 290, 3‐chlorothiophene‐2‐carboxylic acid] | 93.3 ± 13.4 | –
Cc1nc2ccc(N)cc2s1 [compound 302, 2‐methyl‐1,3‐benzothiazol‐6‐ylamine] | 58 ± 4.6 | –
CCCCCSc1nnc[nH]1 [compound 357, 3‐(pentylthio)‐4H‐1,2,4‐triazole] | 23.8 ± 4.9 | –
O=C(O)c1ccnc2ccccc12 [compound 368, quinoline‐4‐carboxylic acid] | 96.3 ± 9.9 | –
OCc1ccc(-n2cccc2)cc1 [compound 372, [4-(1H-pyrrol-1-yl)phenyl]methanol] | 37 ± 14 | viability at 500 µM [2]: 37 ± 14%; IC50 (read-out: T. brucei ED50, ED50 ± SD (n = 4)): 302 ± 15 µM
Cc1onc(-c2ccccc2)c1N [compound 384, 5‐methyl‐3‐phenyl‐4‐isoxazolamine] | 107 ± 7.1 | –
O=C(O)Cc1c[nH]c2ccccc12 [compound 391, 2-(1H-indol-3-yl)acetic acid] | 38.8 ± 10.1 | viability at 500 µM [2]: 38.8 ± 10.1%
COC(=O)c1c[nH]c2ccccc12 [compound 392, methyl 1H‐indole‐3‐carboxylate] | 90.6 ± 14.9 | –
NCc1ccc(N2CCCC2)cc1 [compound 414, [4‐(1‐pyrrolidinyl)phenyl]methanamine] | 31.2 ± 6.3 | –
Nc1cccc(OC(F)(F)F)c1 [compound 419, 3‐(trifluoromethoxy)aniline] | 104 ± 2.1 | –
Nc1ccccc1N1CCNCC1 [compound 429, 2‐piperazin‐1‐ylaniline] | 40.2 ± 13.4 | –
O=C(O)C1COc2ccccc2C1 (stereo not drawn) [compound 431, 3‐chromanecarboxylic acid] | 95.2 ± 14.3 | –
Nc1cccc(N2CCOCC2)c1 [compound 441, 3‐morpholin‐4‐ylaniline] | 52.6 ± 19.5 | –
O=C(O)c1ccc2ncsc2c1 [compound 444, 1,3‐benzothiazole‐6‐carboxylic acid] | 112 ± 19.8 | –
O=C(O)CSCc1ccccc1 [compound 465, 2‐(benzylthio)acetic acid] | 111 ± 12.3 | –
COC(=O)CSc1ccccc1 [compound 466, methyl 2‐(phenylthio)acetate] | 93.8 ± 5.2 | –
CC(=O)Nc1ccc(Cl)cc1C [compound 473, 4‐chloro‐2‐methylacetanilide] | 86 ± 1 | –
O=C(O)c1cc2sccc2s1 [compound 479, thieno[3,2‐b]thiophene‐2‐carboxylic acid] | 91.9 ± 9 | –
OCc1ccc(-c2ccccc2)nc1 [compound 492, (6‐phenyl‐3‐pyridinyl)methanol] | 59.3 ± 3.2 | –
N#Cc1ccc(N2CCNCC2)cc1 [compound 518, 4‐Piperazin‐1‐yl‐benzonitrile] | 61.8 ± 2.1 | –

Structure (SMILES) | viability at 500 µM [1] [%] | other results
O=C(O)CCc1c[nH]c2ccccc12 [compound 533, 3‐(1H‐indol‐3‐yl)propanoic acid] | 95.2 ± 14.2 | –
Cc1onc(-c2ccccc2)c1CO [compound 534, (5‐methyl‐3‐phenyl‐4‐isoxazolyl)methanol] | 59.9 ± 18.3 | –
O=C(O)c1cnccc1C(F)(F)F [compound 553, 4‐(trifluoromethyl)nicotinic acid] | 103 ± 10.9 | –
CN1CCN(c2ccccc2N)CC1 [compound 561, 2‐(4‐methylpiperazin‐1‐yl)aniline] | 72.8 ± 18.6 | –
OCc1cccnc1N1CCCCC1 [compound 572, (2‐piperidino‐3‐pyridinyl)methanol] | 32.5 ± 9 | –
c1ccc(Sc2ccsc2)cc1 [compound 574, 3‐(phenylthio)thiophene] | 112 ± 15.2 | –
CC(=O)c1cc(Cl)sc1Cl [compound 590, 1‐(2,5‐dichloro‐3‐thienyl)ethan‐1‐one] | 106 ± 10.2 | –
O=C(O)C12CC3CC(CC(O)(C3)C1)C2 [compound 597, 3‐hydroxyadamantane‐1‐carboxylic acid] | 106 ± 11 | –
O=C(O)c1cccc(-c2ccccn2)c1 [compound 611, 3‐pyrid‐2‐ylbenzoic acid] | 98.5 ± 13.5 | –
CC(C)(C)OC(=O)Nc1ccsc1 [compound 619, tert‐butyl N‐(3‐thienyl)carbamate] | 60.5 ± 3.8 | –
OCc1ccc(Oc2ccccc2)cc1 [compound 622, (4‐phenoxyphenyl)methanol] | 84 ± 5.4 | –
Nc1ncccc1OCc1ccccc1 [compound 624, 3‐(benzyloxy)pyridin‐2‐amine] | – | viability at 500 µM [3]: 70.4 ± 12.1%
NC(=S)COc1cccc(Cl)c1 [compound 633, 2‐(3‐chlorophenoxy)ethanethioamide] | 86.5 ± 6.5 | –
CNCc1ccccc1-c1cccs1 [compound 646, N‐methyl‐N‐(2‐thien‐2‐ylbenzyl)amine] | – | viability at 500 µM [3]: 27.9 ± 11%
O=C(O)c1cccc(-c2ccsc2)c1 [compound 650, 3‐thien‐3‐ylbenzoic acid] | 30.5 ± 9 | –
CNCc1ccc(N2CCCCC2)cc1 [compound 657, N‐methyl‐N‐(4‐piperidin‐1‐ylbenzyl)amine] | 27.3 ± 8.2 | –
O=C(O)c1ccc(-c2nccs2)cc1 [compound 662, 4‐(1,3‐thiazol‐2‐yl)benzoic acid] | 116 ± 24 | –
O=C(O)c1ccc(CN2CCCC2)cc1 [compound 665, 4‐(pyrrolidin‐1‐ylmethyl)benzoic acid] | 79.6 ± 19.9 | –
N#Cc1ccnc(N2CCSCC2)c1 [compound 668, 2‐thiomorpholinoisonicotinonitrile] | 106 ± 23.6 | –
